Experimental findings from PubChem BioAssay (NCATS) are described below.

By UniProt entry, the sequences of proteins in these tests, tags left out.
UniProt P16066, whole entry: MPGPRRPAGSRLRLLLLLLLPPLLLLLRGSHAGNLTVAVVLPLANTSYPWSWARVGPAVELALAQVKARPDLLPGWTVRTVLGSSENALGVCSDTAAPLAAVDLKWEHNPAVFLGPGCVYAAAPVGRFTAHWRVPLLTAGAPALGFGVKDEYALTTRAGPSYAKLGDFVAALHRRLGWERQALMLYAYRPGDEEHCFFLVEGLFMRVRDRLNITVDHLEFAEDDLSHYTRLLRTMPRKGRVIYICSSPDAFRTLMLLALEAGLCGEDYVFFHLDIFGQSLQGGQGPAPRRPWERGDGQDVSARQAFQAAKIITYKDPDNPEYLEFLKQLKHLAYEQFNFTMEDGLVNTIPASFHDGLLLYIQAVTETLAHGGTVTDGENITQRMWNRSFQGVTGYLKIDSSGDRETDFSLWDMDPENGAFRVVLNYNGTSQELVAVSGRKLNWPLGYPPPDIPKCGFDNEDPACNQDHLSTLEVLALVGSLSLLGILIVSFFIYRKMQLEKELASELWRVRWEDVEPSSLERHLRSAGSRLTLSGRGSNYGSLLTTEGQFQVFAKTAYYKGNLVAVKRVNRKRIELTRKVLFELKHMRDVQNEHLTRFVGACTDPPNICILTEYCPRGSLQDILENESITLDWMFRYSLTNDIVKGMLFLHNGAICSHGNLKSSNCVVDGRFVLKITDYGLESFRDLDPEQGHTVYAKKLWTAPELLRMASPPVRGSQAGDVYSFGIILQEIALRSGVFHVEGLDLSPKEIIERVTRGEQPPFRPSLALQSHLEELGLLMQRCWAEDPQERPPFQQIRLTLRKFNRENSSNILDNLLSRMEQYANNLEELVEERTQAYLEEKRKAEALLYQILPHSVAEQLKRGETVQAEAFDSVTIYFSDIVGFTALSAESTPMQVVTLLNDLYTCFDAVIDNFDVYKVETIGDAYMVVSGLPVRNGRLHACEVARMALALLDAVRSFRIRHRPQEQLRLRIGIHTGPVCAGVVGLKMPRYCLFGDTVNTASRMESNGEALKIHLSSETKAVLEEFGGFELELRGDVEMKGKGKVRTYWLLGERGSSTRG
UniProt P20594, whole entry: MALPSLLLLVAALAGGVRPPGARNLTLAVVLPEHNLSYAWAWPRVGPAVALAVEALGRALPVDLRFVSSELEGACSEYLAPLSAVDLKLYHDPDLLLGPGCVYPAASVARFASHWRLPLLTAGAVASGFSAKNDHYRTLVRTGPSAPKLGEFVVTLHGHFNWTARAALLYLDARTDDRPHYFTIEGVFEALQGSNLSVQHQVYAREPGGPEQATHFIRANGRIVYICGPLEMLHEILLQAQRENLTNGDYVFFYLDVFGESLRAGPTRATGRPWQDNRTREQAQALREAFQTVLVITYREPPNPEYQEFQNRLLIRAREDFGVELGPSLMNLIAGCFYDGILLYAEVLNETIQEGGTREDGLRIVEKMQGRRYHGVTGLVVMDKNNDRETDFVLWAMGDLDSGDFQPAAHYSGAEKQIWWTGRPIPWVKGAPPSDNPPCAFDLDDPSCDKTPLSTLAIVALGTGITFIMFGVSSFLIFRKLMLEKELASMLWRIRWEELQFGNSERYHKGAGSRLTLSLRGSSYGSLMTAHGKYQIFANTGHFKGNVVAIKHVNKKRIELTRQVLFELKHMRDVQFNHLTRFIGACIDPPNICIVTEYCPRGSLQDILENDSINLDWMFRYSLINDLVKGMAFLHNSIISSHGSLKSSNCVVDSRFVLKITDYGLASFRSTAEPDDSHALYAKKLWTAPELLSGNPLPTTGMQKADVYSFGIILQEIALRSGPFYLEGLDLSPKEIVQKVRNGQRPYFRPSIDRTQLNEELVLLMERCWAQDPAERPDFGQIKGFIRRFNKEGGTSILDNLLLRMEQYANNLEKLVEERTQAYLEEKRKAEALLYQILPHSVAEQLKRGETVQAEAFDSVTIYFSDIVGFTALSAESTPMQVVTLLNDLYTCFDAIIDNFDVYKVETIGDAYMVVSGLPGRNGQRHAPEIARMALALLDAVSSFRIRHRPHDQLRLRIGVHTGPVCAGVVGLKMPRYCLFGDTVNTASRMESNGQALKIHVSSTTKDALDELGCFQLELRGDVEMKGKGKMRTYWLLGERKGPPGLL
UniProt Q03431, whole entry: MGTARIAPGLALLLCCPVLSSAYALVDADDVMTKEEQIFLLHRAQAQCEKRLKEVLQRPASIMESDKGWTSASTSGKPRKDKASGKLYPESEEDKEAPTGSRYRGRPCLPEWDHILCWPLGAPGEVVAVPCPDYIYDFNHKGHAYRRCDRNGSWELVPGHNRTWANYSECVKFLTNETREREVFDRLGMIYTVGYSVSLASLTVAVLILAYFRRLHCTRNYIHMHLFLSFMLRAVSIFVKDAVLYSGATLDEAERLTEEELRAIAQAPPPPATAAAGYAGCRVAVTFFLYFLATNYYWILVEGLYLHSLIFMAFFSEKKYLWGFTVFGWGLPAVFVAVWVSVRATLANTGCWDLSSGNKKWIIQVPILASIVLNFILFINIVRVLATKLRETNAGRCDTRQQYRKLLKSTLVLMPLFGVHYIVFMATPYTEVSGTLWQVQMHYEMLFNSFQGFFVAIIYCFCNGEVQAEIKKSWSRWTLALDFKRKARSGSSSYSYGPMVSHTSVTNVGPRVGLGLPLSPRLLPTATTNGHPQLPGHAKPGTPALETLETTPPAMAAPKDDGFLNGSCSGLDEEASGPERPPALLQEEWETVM

Structures are written as SMILES. “And” between values parts separate entries of the source, which are not always exact repeats. Identical values can stand only once. The list shows a part of the results, in another mix than the full data. Results filed as inconclusive are left out. Some salts or complexes appear as unconnected parts, following the source record. The source made the active and inactive calls. Unless noted, calls come from the whole dose curve; as a rule, active = well fitted curve in the direction sought with a large enough effect; inconclusive = small, poorly fitted or top-dose-only effect, or another doubt; inactive = no such curve, though single readings can be large; an effect the other way counts as inactive or inconclusive.

The target in test [1] is Atrial natriuretic peptide receptor 1 (Homo sapiens) (UniProt P16066). Nature of the test: Natriuretic polypeptide receptor (hNpr1) antagonism - Pilot screen (AID 1347049; calls by dose curve;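 note: HEK293 cells with hNpr1 and GloSensor cGMP luciferase stimulated by 0.1 nM hNppA; agonist-evoked cGMP luminescence read 20 min after hNppA addition; % is set by controls: 0 for no effect and ±100 for the full control effect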). The following applies: hNpr1 cells, antagonist mode cGMP read-out; at 57.5 µM (top of the series). A digest of the protocol:
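Cells expressing receptor plus cGMP biosensor are seeded and incubated overnight at 37C, then loaded with GloSensor reagent (2% final) at room temperature for 2 h. Library compounds go on for 30 min. A pre-read precedes agonist (hNppA, 0.1 nM final) and a 20-min readout.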

Test [2] addresses Atrial natriuretic peptide receptor 2 (Homo sapiens) (UniProt P20594). In words: Natriuretic polypeptide receptor (hNpr2) antagonism - Pilot subtype selectivity assay (AID 1347050; calls by dose curve; note: % is set by controls: 0 for no effect and ±100 for the full control effect). As to conditions: NPR2-expressing cells, cGMP antagonist-mode read-out; at 38.3 µM (top of the series). An outline of the steps:
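Read-out: GloSensor luminescence (CCD imager), baseline vs post-stimulation. HEK293 cells expressing hNpr2; compounds pre-incubated 30-50 min at ambient temperature; hNppC 1 nM final, 20 min.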

In test [3] the target is Parathyroid hormone/parathyroid hormone-related peptide receptor (Homo sapiens) (UniProt Q03431). In words: qHTS for PTHR1 Agonists: Optimization Screen against the NCGC LOPAC library (AID 1347079).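 Note: GloSensor cAMP luminescence in HEK-293 GP2 cells expressing human PTHR1 with IBMX; 0% is about no effect.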 The following applies: HEK293 GP2 PTHR1 GloSensor cAMP luminescence, 1 h; at 57.1 µM (top of the series). A digest of the protocol:
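Signal increase flags agonism. GP2 cells, derived from HEK-293, express human PTHR1 and a GloSensor cAMP construct.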
On the technique in general: In qHTS, concentration-response curves come from the screen itself.

Test [4] can be described thus: qHTS assay for small molecule agonists of the antioxidant response element (ARE) signaling pathway measured by Nrf2-dependant transcriptional activity - cell viability counter screen (AID 720653; active = well fitted curve in the direction sought with a large enough effect in the repeat runs; an effect the other way counts as inactive or inconclusive; note: % is set by controls: 0 for no effect and ±100 for the full control effect). As to conditions: ARE-bla HepG2 viability, CellTiter-Glo ATP luminescence, 16 h; stronger effect = lower value. An outline of the steps: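 ARE-bla HepG2 cells (2,000/well) rested 5 hrs at 37C/5% CO2, then exposed to compounds in DMSO for 16 hrs. Viability was read in the same wells as intracellular ATP by luminescence, 30 min at room temperature after reagent addition.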

A short description of test [5]: qHTS assay for cell viability of HEK293 cells (AID 743288). Note: % is set by controls: 0 for no effect and ±100 for the full control effect; nearly all actives have a fitted effect of over 50% in size. As to conditions: ATP luminescence (CellTiter-Glo), 18 h, stronger effect = lower value. A digest of the protocol: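 Steps: plate 2,000 parental HEK293 cells per well; incubate ≥5 h, 37 C; add compounds in DMSO; incubate 18 h, 37 C; add CellTiter-Glo; wait 30 min at room temperature; read luminescence.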
A short description of test [6]: qHTS assay for cell viability of the p53RE-bla HCT-116 cell line (AID 743292). Note: % is set by controls: 0 for no effect and ±100 for the full control effect; nearly all actives have a fitted effect of over 55% in size. As to conditions: p53RE-bla HCT-116 viability, ATP luminescence, 16 h; at 95 µM (top of the series). A digest of the protocol:
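Intracellular ATP of p53RE-bla HCT-116 cells measured by luciferase luminescence following 16 h compound incubation at 37 C; DMSO-only wells served as vehicle controls.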

Test [7] in a line: P-glycoprotein substrates identified in KB-8-5-11 adenocarcinoma cell line, qHTS therapeutic library screen (AID 1346987). Note: % is set by controls: 0 for no effect and ±100 for the full control effect; nearly all actives have a fitted effect of over 65% in size. The following applies: KB-8-5-11 (P-gp overexpressing) viability, CellTiter-Glo, 72 h. A digest of the protocol:
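In this qHTS, P-gp-rich KB-8-5-11 cells received library compounds across a concentration range. Viability was quantified by luminescence after 72 h at 37 degree C.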

Test [8] can be described thus: qHTS of pediatric cancer cell lines to identify multiple opportunities for drug repurposing: Primary screen for TC32 cells (AID 1347089). Note: % is set by controls: 0 for no effect and ±100 for the full control effect; nearly all actives have a fitted effect of over 60% in size. The following applies: TC32 Ewing sarcoma viability, CellTiter-Glo luminescence, 48 h; at 45.8 µM (top of the series) unless noted. An outline of the steps: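 TC32 cells, 500-1,000/well in growth medium, compound-treated 48 h at 37 °C; viability from CellTiter-Glo luminescence. Primary screen: MIPE 11-point (0.78 nM–46 µM final), NPC 8-point (0.59 nM–46 µM final); confirmatory at 11-point dilutions.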

The nature of test [9]: qHTS of pediatric cancer cell lines to identify multiple opportunities for drug repurposing: Primary screen for DAOY cells (AID 1347090).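 Note: plate controls were DMSO for no effect and bortezomib for full effect; nearly all actives have a fitted effect of over 55% in size.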 As to conditions: DAOY medulloblastoma viability, CellTiter-Glo luminescence, 48 h; at 92.7 µM (top of the series) unless noted. An outline of the steps:
(§1)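 Eight- or eleven-point concentration series, 48 h treatment at 37 degrees C in growth media; readout CellTiter-Glo luminescence. Potency and efficacy were taken from the concentration-response curves.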

Test [10] can be described thus: qHTS of pediatric cancer cell lines to identify multiple opportunities for drug repurposing: Primary screen for SJ-GBM2 cells (AID 1347091).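 Note: plate controls were DMSO neutral control for no effect and bortezomib for full effect.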 The following applies: SJ-GBM2 viability, CellTiter-Glo luminescence, 48 h; at 46 µM (top of the series) unless noted. A digest of the protocol: as §1
Test [11] is described as follows: qHTS of pediatric cancer cell lines to identify multiple opportunities for drug repurposing: Primary screen for A673 cells (AID 1347092). Note: % is set by controls: 0 for no effect and ±100 for the full control effect; nearly all actives have a fitted effect of over 45% in size. As to conditions: A673 Ewing sarcoma viability, CellTiter-Glo ATP luminescence, 48 h; at 46 µM (top of the series) unless noted. A digest of the protocol: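 A673 cells (500-1,000 cells/well) were treated 48 hours at 37 degrees C with compounds at 11-point (0.78 nM to 46 µM) or 8-point (0.59 nM to 46 µM) dilutions. Viability read by CellTiter-Glo luminescence; concentration-response curves fitted.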

Test [12] is described as follows: qHTS of pediatric cancer cell lines to identify multiple opportunities for drug repurposing: Primary screen for SK-N-MC cells (AID 1347093).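 For activity change, negative = cytotoxic: plate controls were DMSO neutral control for no effect and bortezomib for full effect.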 Note: potency is the fitted concentration of half-maximal effect.
The nature of test [13]: qHTS of pediatric cancer cell lines to identify multiple opportunities for drug repurposing: Primary screen for BT-37 cells (AID 1347094).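 Note: plate controls were DMSO for no effect and bortezomib for full effect.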 The following applies: BT-37 viability, CellTiter-Glo luminescence, 48 h; at 57.3 µM (top of the series) unless noted. A digest of the protocol: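 ATP-based luminescence (CellTiter-Glo) quantifies viability after a 48-hour exposure. Compounds are dosed across 8 or 11 final concentrations; DMSO and 2.3 µM bortezomib serve as controls.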

A short description of test [14]: qHTS of pediatric cancer cell lines to identify multiple opportunities for drug repurposing: Primary screen for NB-EBc1 cells (AID 1347095).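 Note: plate controls were DMSO neutral control for no effect and bortezomib for full effect.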 As to conditions: NB-EBc1 neuroblastoma viability, CellTiter-Glo luminescence, 48 h; at 92.7 µM (top of the series) unless noted.
The nature of test [15]: qHTS Assay for Identifying Gametocytocidal Compounds (AID 743244).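 Note: % is set by controls: 0 for no effect and ±100 for the full control effect; actives lower the fluorescent signal which means gametocytes are killed.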 The following applies: P. falciparum 3D7 stage III-V gametocytes, alamarBlue, 72 h; stronger effect = lower value.
Test [16] is described as follows: qHTS assay to identify small molecule inhibitors of chordoma cells - UCH-2 (AID 1259356). Note: % is set by controls: 0 for no effect and ±100 for the full control effect. The following applies: UCH-2 chordoma viability, CellTiter-Glo ATP luminescence, 48 h; at 46.1 µM (top of the series) unless noted.
The nature of test [17]: High-throughput drug toxicity screening in the BPDCN cell line Gen2.2 (AID 1224824; call rule not given here;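 note: cells exposed to compounds for 48 h before reading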). The following applies: Gen2.2 BPDCN cells; at 23.2 µM (top of the series). An outline of the steps: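 Gen2.2 cells, 500 per well in phenol red-free RPMI with 10% FBS, exposed to compounds 48 h at 37 C, 5% CO2; viability by CellTiter-Glo luminescence. Percent activity scaled to DMSO (100%) and 9.2 uM bortezomib final (0%).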

Test [18] can be described thus: High-throughput drug toxicity screening in the BPDCN cell line Cal-1 (AID 1224825; call rule not given here). The following applies: Cal-1 BPDCN cell viability, qHTS; at 23.2 µM (top of the series). A digest of the protocol: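 Viability of the BPDCN line Cal-1 is measured as ATP-based luminescence (CellTiter-Glo) following 48 h incubation with compounds. Percent activity uses DMSO-treated wells as 100% and 9.2 uM bortezomib as 0%.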

Test [19] in a line: qHTS Screen of the MIPE 4.0 Collection Against Ewings Sarcoma (TC71) (AID 1259253). Note: potency is the fitted concentration of half-maximal effect; nearly all actives have a fitted effect of over 40% in size. The following applies: TC71 Ewing sarcoma viability, CellTiter-Glo, 48 h. An outline of the steps:
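Measured: ATP luminescence (CellTiter-Glo) 10 min after reagent addition, following 48 h drug treatment. Relative luciferase units converted to percent activity, with no-cell wells as full and DMSO wells as zero inhibition.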

As for `N#[O+].[C-]#N.[C-]#N.[C-]#N.[C-]#N.[C-]#N.[Fe+2].[Na+].[Na+]`, the activity change, negative = inhibition is inactive: 20.3% in test [1] and inactive: 10.7% in test [2]. Besides, the activation in [3] was inactive: -31.2%.

For `[NH4+].[O-][Cl+3]([O-])([O-])[O-]`, the figures for the max response in test [4] and in test [5] were inactive: -3.81% and inactive: -0.505%, respectively. Besides, in test [6], the activity change, negative = cytotoxicity is inactive: -0.15%.

In the case of `Cc1cccc([N+](=O)[O-])c1[N+](=O)[O-]`, the max response is inactive: -3.89% and inactive: -7.47% in test [4]; inactive: 1.41% and inactive: -2.66% in [5]. The activity change, negative = cytotoxicity in [6] was inactive: -3.21% and inactive: 1.75%; in test [7] (at 93.4 µM (top of the series)), inactive: 5.21%. Besides, the activity change, negative = cytotoxic was inactive: 10.1% [at 92.2 µM] in test [8]; inactive: 15.5% in test [9]; inactive: 17.1% [at 92.7 µM] in test [10]; inactive: -17.9% [at 92.7 µM] in test [11]; inactive: 16.1% [at 116 µM] in test [13]; inactive: -11.2% in [14]. Also, in test [12], the Potency was active: 32.5 µM.

With `Cc1ccc([N+](=O)[O-])c([N+](=O)[O-])c1`, the max response is inactive: 7.73% and inactive: -7.18% in test [4]; inactive: -4.09% and inactive: -0.299% in test [5]. The activity change, negative = cytotoxicity in test [6] is inactive: -6.24% and inactive: -5.32%.

`CCOP(=S)(CC)Oc1cc(Cl)c(Cl)cc1Cl` (configuration not stated): the max response is inactive: -5.73% in test [4] and inactive: -13.3% in [5]. Also, the activity change, negative = cytotoxicity in [6] was inactive: -16.7%.

With `O=[N+]([O-])c1cccc([N+](=O)[O-])c1`, the max response is inactive: 14.1% and inactive: -6.43% in test [4]; inactive: -1.37% and inactive: -7.98% in test [15]; inactive: 8.39% and inactive: -6.81% in test [5]. Moreover, the activity change, negative = cytotoxicity in test [6] is inactive: -2.61% and inactive: -5.8%; in [7] (at 44.5 µM (top of the series)), inactive: -3.41%; in test [7] (at 93.4 µM (top of the series)), inactive: -22.5%. For the same compound, in test [16], the activity change, negative = inhibition was inactive: 8.08%. Also, the activity change, negative = cytotoxic is inactive: 8.05% [at 92.2 µM] in [8]; inactive: 13% in [9]; inactive: 48.5% [at 92.7 µM] in [10]; inactive: 13.8% [at 92.7 µM] in [11]; inactive: 15.1% [at 116 µM] in test [13]; inactive: 32.9% in [14]. In addition, the Potency entry in [12] is “inactive”.

Consider `C/C1=C2N=C(/C=C3N=C(/C(C)=C4\N=C(C(CC(N)=O)C4(C)CCC(=O)NCC(C)OP(=O)([O-])OC4C(CO)OC(n5cnc6cc(C)c(C)cc65)C4O)C4(C)N=C1C(CCC(N)=O)C4(C)CC(N)=O)C(CCC(N)=O)C\3(C)C)C(CCC(N)=O)C/2(C)CC(N)=O.[C-]#N.[Co]` (configuration not stated), for which, in test [7] (at 17.3 µM (top of the series)), the activity change, negative = cytotoxicity is inactive: -9.21%.

As for `O=[N+]([O-])[O-].[NH4+]`, the max response in test [4] was inactive: -7.45%; in test [15] it was inactive: 16.2%; in [5], inactive: 7.15%. The activity change, negative = cytotoxicity is inactive: 7.18% in [6] and inactive: 16% in [7] (at 44.5 µM (top of the series)). The activity change, negative = inhibition in test [16] is inactive: 21.4%.

`CC1=C2[N-][C@@](C)([C@@H]3N=C(C(C)=C4N=C(C=C5N=C1[C@@](C)(CC(N)=O)[C@H]5CCC(N)=O)C(C)(C)[C@H]4CCC(N)=O)[C@](C)(CCC(=O)NC[C@@H](C)OP(=O)([O-])O[C@H]1[C@@H](O)[C@@H](n4cnc5cc(C)c(C)cc54)O[C@H]1CO)[C@H]3CC(N)=O)[C@@](C)(CC(N)=O)[C@@H]2CCC(N)=O.[C-]#N.[Co+3]`: the cell viability, % of control (lower = more cytotoxic) in test [17] came to 102%. The compound also had a viability (% of control) in [18] of 99.8%. Moreover, the Potency in test [19] is active: 8.12 µM. Further, the activity change, negative = cytotoxicity in test [7] (at 17.3 µM (top of the series)) was inactive: -12.5%. The activity change, negative = cytotoxic in test [8] is inactive: 3.61% [at 16 µM]; in test [10] it was inactive: -15.8% [at 16.1 µM]; in test [13], inactive: -2.49% [at 20.1 µM]. The Potency result in test [12] was “inactive”.
